Results: patent publication US5968903A, “Inhibition of H. pylori proliferation” (Biomeasure, Incorporated, priority 1998, dated 1999)
pKi: −log10 of the molar value.

Protein sequences, listed by entry. Tags and fused reporters are not part of them. Lines headed by an entry give the natural chain unless they say otherwise; changes in a name come on top.
UniProt P32745: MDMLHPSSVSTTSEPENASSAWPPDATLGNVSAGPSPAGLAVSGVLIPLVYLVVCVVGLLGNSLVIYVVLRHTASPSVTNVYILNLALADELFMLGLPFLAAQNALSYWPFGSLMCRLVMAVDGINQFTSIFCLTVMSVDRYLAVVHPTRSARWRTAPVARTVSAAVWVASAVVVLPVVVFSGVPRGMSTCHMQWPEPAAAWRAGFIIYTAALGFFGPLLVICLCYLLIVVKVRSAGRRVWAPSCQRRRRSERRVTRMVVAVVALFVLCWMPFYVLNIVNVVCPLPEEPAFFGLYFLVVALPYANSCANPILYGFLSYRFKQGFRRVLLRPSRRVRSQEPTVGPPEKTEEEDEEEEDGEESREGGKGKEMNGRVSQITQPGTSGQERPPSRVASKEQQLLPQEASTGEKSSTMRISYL

Target: human SSTR-3 (Homo sapiens, UniProt P32745)
Assay: Somatostatin receptor binding assay, hSSTR-3
Settings: [125I-Tyr11]somatostatin-14, CHO-K1 membranes

With `C[C@@H](O)[C@@H]1NC(=O)[C@H](CCCCN)NC(=O)[C@@H](Cc2c[nH]c3ccccc23)NC(=O)[C@H](Cc2ccccc2)NC(=O)[C@H](Cc2ccccc2)NC(=O)[C@@H](N)CSSC[C@@H](C(N)=O)NC(=O)[C@H](Cc2ccccc2)NC1=O` [Example 107, H-Cys-Phe-Phe-D-Trp-Lys-Thr-Phe-Cys-NH2] the pKi was 6.26.
